The values that follow come from ChEMBL document CHEMBL1153532, “Design and evaluation of novel biphenyl sulfonamide derivatives with potent histamine H(3) receptor inverse agonist activity” (J Med Chem, 2009).

Chains of the proteins cited; added tags and fusions are not shown. Lines headed by an entry give the natural chain unless they say otherwise; changes in a name come on top.
UniProt Q9QYN8: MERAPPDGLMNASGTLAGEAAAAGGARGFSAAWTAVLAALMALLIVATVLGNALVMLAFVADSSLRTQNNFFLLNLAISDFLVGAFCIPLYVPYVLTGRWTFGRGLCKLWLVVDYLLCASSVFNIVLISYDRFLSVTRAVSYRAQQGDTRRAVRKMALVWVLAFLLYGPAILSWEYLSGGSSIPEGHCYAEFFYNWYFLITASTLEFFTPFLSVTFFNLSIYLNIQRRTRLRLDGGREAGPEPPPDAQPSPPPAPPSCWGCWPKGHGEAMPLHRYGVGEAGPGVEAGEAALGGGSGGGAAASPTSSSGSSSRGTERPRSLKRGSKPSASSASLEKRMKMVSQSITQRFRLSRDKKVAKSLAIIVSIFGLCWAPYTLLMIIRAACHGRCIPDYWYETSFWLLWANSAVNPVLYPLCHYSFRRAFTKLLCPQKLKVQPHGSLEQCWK

This test deals with Histamine H3 receptor (Rattus norvegicus, UniProt Q9QYN8). Description: Displacement of N-[3H]methylhistamine from histamine H3 receptor in rat cortex membrane. The format is cell membranes.

With `C[C@@H]1CCCN1CCc1ccc(-c2ccc(S(=O)(=O)NCC3CC3)cc2)cc1`, where the note is “read-out: pKi (converted)”, the Ki was 2.51 nM.

Take `CCNS(=O)(=O)c1ccc(-c2ccc(CCN3CCC[C@H]3C)cc2)cc1`: the Ki (read-out: Ki) came to 3 nM.
